Assay: Solubilization of hydrophobic organic compound in aqueous sodium monomenthyl glutarate (Na-MMG)

Compound | concentration of hydrophobic compound in clear, homogeneous solution in aqueous Na-MMG (MMG neutralised with 8.8% aqueous sodium bicarbonate, clear homogeneous solution) | content in clear homogeneous solution with Na-MMG (12.7%) (Example 12: crude MMG mixture neutralised with NaHCO3 and diluted with water)
CC(C)[C@@H]1CC[C@@H](C)C[C@H]1OC(=O)[C@H](C)O [l-menthyl lactate] | ~1.25% | –
CC(C)[C@@H]1CC[C@@H](C)C[C@H]1O [l-menthol] | – | 1.2%
